The target in one data set is human GLP-1R (Homo sapiens, UniProt P43220). Kind of data set: cAMP signal analysis of GLP-1R (GLP-1 receptor agonist activity). Conditions: CHO cell line stably expressing human GLP-1R; downstream cAMP signal, LANCE cAMP kit. Type of data set: cell-based. Here is the method: A wild human GLP-1R (NM_002062.5) was subjected to transient transfection and screened for two weeks by 600 μg/ml of hygromycin-B to obtain a cell line which was recombined and integrated into an FlpInCHO (Invitrogen) cell stable expression system. The culture condition of the FlpInCHO cell was as follows: 10% of heat-inactivated fetal calf serum was added to a DMEM culture solution, and the culture was performed in a 5% carbon dioxide cell incubator.
In the test, an LANCE cAMP detection kit was used for measuring the cAMP signal intensity.
For orientation: Time-resolved FRET reads energy transfer from a long-lived donor to a nearby acceptor.

The chains behind the UniProt entries cited, without tags or fusion partners. Residues count along the entry.
UniProt P43220, 24-463: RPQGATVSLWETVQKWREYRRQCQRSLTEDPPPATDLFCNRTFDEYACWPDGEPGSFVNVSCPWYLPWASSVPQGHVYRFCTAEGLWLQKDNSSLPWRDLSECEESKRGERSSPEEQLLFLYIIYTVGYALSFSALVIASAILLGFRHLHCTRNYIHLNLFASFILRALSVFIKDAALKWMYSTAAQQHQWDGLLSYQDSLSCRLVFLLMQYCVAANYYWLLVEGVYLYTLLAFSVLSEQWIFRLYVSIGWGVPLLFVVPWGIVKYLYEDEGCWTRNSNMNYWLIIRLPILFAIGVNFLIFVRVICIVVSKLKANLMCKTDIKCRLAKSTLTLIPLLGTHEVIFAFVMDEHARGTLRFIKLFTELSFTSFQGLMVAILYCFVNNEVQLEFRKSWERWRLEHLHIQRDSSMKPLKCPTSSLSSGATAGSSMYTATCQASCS

The nature of data set [1]: Pharmacokinetic comparison experiment in rats, single subcutaneous injection. Conditions: rat, in vivo, sc, 0.02 mg/kg. Here is the method:
A single subcutaneous injection was performed with a dose of 0.02 mg/kg; blood collection was performed by tail clipping, and the blood collection time points were: 0 h, 15 min, 30 min, 1 h, 2 h, 3 h, 4 h, 6 h, 8 h, 24 h, 48 h and 72 h. The compound concentration in plasma was determined by LC-MS/MS, all data were collected and exported by Unifi 1.9.3 software, and Excel software was used for data calculation. A non-compartmental model of DAS 3.0 software was used to calculate the pharmacokinetic parameters of rats after administration.

The results in this text go back to US12590134B2, “GLP-1 agonist polypeptide compound and salt thereof, synthesis method therefor and use thereof” (Sinopep-Allsino Biopharmaceutical Co., Ltd., priority 2020, dated 2026).

What is called EC50 is the concentration that produces a half-maximal response. A word on the CL/F: it is the apparent clearance, not corrected for the fraction that reaches the circulation. Broadly, the half-life is the time in which the quantity being followed falls by half. Low readings indicate fast loss, high ones slow loss. A word on the AUC(0-inf): it is total exposure, with the tail of the curve extrapolated. A higher AUC(0-inf) goes with high exposure. One may read the AUC(0-t) as exposure summed from dosing to a finite time, without extrapolation to infinity. Higher therefore signals more exposure. By Cmax is commonly meant the peak of the concentration-time curve. By Tmax is commonly meant the time at which the peak concentration occurs.

In turn, `CC[C@H](C)[C@H](NC(=O)[C@H](Cc1ccccc1)NC(=O)[C@H](CCC(=O)O)NC(=O)[C@H](CCCCNC(=O)COCCOCCNC(=O)COCCOCCNC(=O)CC[C@H](NC(=O)CCCCCCCCCCCCCCCCC(=O)O)C(=O)O)NC(=O)[C@H](C)NC(=O)[C@H](C)NC(=O)[C@H](CCC(N)=O)NC(=O)CNC(=O)[C@H](CCC(=O)O)NC(=O)[C@H](CC(C)C)NC(=O)[C@H](Cc1ccc(O)cc1)NC(=O)[C@H](CO)NC(=O)[C@H](CO)NC(=O)[C@@H](NC(=O)[C@H](CC(=O)O)NC(=O)[C@H](CO)NC(=O)[C@@H](NC(=O)[C@H](Cc1ccccc1)NC(=O)[C@@H](NC(=O)CNC(=O)[C@H](CCC(=O)O)NC(=O)[C@@](C)(CC)NC(=O)[C@@H](N)Cc1c[nH]cn1)[C@@H](C)O)[C@@H](C)O)C(C)C)C(=O)N[C@@H](C)C(=O)N[C@@H](Cc1c[nH]c2ccccc12)C(=O)N[C@@H](CC(C)C)C(=O)N[C@H](C(=O)N[C@@H](CCCNC(=N)N)C(=O)NCC(=O)N[C@@H](CCCNC(=N)N)C(=O)NCC(=O)O)C(C)C` [NO: 2] came in with an EC50 on human GLP-1R of 21.4 ± 1.32 nM.
As to `CC[C@H](C)[C@H](NC(=O)[C@H](Cc1ccccc1)NC(=O)[C@H](CCC(=O)O)NC(=O)[C@H](CCCCNC(=O)COCCOCCNC(=O)COCCOCCNC(=O)CC[C@H](NC(=O)CCCCCCCCCCCCCCCCC(=O)O)C(=O)O)NC(=O)[C@H](C)NC(=O)[C@H](C)NC(=O)[C@H](CCC(N)=O)NC(=O)CNC(=O)[C@H](CCC(=O)O)NC(=O)[C@H](CC(C)C)NC(=O)[C@H](Cc1ccc(O)cc1)NC(=O)[C@H](CO)NC(=O)[C@H](CO)NC(=O)[C@@H](NC(=O)[C@H](CC(=O)O)NC(=O)[C@H](CO)NC(=O)[C@@H](NC(=O)[C@H](Cc1ccccc1)NC(=O)[C@@H](NC(=O)CNC(=O)[C@H](CCC(=O)O)NC(=O)[C@](C)(CC)NC(=O)[C@@H](N)Cc1c[nH]cn1)[C@@H](C)O)[C@@H](C)O)C(C)C)C(=O)N[C@@H](C)C(=O)N[C@@H](Cc1c[nH]c2ccccc12)C(=O)N[C@@H](CC(C)C)C(=O)N[C@H](C(=O)N[C@@H](CCCNC(=N)N)C(=O)NCC(=O)N[C@@H](CCCNC(=N)N)C(=O)NCC(=O)O)C(C)C` [NO: 4], in data set [1] (male), the CL/F is 0.15 mL/min/kg and the half-life was 14.2 h. Also, in data set [1], the AUC(0-inf) was determined as 2060 ng·h/mL; the AUC(0-t) is 1970 ng·h/mL; the “AUMC(0-t), Mean” value came to 47513.48 h * h * μg/L; the “AUMC(0-∞), Mean” value came out at 56436.94 h * h * μg/L. Further, in data set [1], the highest level (Cmax) was 47.2 ng/mL; the “R_AUC(t/∞), Mean” value is recorded as 95.30%; the time to peak (Tmax) stood at 18.7 h.
Consider `CC[C@H](C)[C@H](NC(=O)[C@H](Cc1ccccc1)NC(=O)[C@H](CCC(=O)O)NC(=O)[C@H](CCCCNC(=O)COCCOCCNC(=O)COCCOCCNC(=O)CC[C@H](NC(=O)CCCCCCCCCCCCCCCCC(=O)O)C(=O)O)NC(=O)[C@H](C)NC(=O)[C@H](C)NC(=O)[C@H](CCC(N)=O)NC(=O)CNC(=O)[C@H](CCC(=O)O)NC(=O)[C@H](CC(C)C)NC(=O)[C@H](Cc1ccc(O)cc1)NC(=O)[C@H](CO)NC(=O)[C@H](CO)NC(=O)[C@@H](NC(=O)[C@H](CC(=O)O)NC(=O)[C@H](CO)NC(=O)[C@@H](NC(=O)[C@H](Cc1ccccc1)NC(=O)[C@@H](NC(=O)CNC(=O)[C@H](CCC(=O)O)NC(=O)C1(NC(=O)[C@@H](N)Cc2c[nH]cn2)COC1)[C@@H](C)O)[C@@H](C)O)C(C)C)C(=O)N[C@@H](C)C(=O)N[C@@H](Cc1c[nH]c2ccccc12)C(=O)N[C@@H](CC(C)C)C(=O)N[C@H](C(=O)N[C@@H](CCCNC(=N)N)C(=O)NCC(=O)N[C@@H](CCCNC(=N)N)C(=O)NCC(=O)O)C(C)C` [NO: 6], for which, on human GLP-1R, the 50% effective concentration (EC50) stood at 0.623 ± 0.0835 nM.
On to `CC[C@H](NC(=O)[C@@H](N)Cc1c[nH]cn1)C(=O)N[C@@H](CCC(=O)O)C(=O)NCC(=O)N[C@H](C(=O)N[C@@H](Cc1ccccc1)C(=O)N[C@H](C(=O)N[C@@H](CO)C(=O)N[C@@H](CC(=O)O)C(=O)N[C@H](C(=O)N[C@@H](CO)C(=O)N[C@@H](CO)C(=O)N[C@@H](Cc1ccc(O)cc1)C(=O)N[C@@H](CC(C)C)C(=O)N[C@@H](CCC(=O)O)C(=O)NCC(=O)N[C@@H](CCC(N)=O)C(=O)N[C@@H](C)C(=O)N[C@@H](C)C(=O)N[C@@H](CCCCNC(=O)COCCOCCNC(=O)COCCOCCNC(=O)CC[C@H](NC(=O)CCCCCCCCCCCCCCCCC(=O)O)C(=O)O)C(=O)N[C@@H](CCC(=O)O)C(=O)N[C@@H](Cc1ccccc1)C(=O)N[C@H](C(=O)N[C@@H](C)C(=O)N[C@@H](Cc1c[nH]c2ccccc12)C(=O)N[C@@H](CC(C)C)C(=O)N[C@H](C(=O)N[C@@H](CCCNC(=N)N)C(=O)NCC(=O)N[C@@H](CCCNC(=N)N)C(=O)NCC(=O)O)C(C)C)[C@@H](C)CC)C(C)C)[C@@H](C)O)[C@@H](C)O` [NO: 8], for which, at human GLP-1R, the EC50 stood at 7.92 ± 1.06 nM.
Same read-out and setting: in the case of `CC[C@@H](NC(=O)[C@@H](N)Cc1c[nH]cn1)C(=O)N[C@@H](CCC(=O)O)C(=O)NCC(=O)N[C@H](C(=O)N[C@@H](Cc1ccccc1)C(=O)N[C@H](C(=O)N[C@@H](CO)C(=O)N[C@@H](CC(=O)O)C(=O)N[C@H](C(=O)N[C@@H](CO)C(=O)N[C@@H](CO)C(=O)N[C@@H](Cc1ccc(O)cc1)C(=O)N[C@@H](CC(C)C)C(=O)N[C@@H](CCC(=O)O)C(=O)NCC(=O)N[C@@H](CCC(N)=O)C(=O)N[C@@H](C)C(=O)N[C@@H](C)C(=O)N[C@@H](CCCCNC(=O)COCCOCCNC(=O)COCCOCCNC(=O)CC[C@H](NC(=O)CCCCCCCCCCCCCCCCC(=O)O)C(=O)O)C(=O)N[C@@H](CCC(=O)O)C(=O)N[C@@H](Cc1ccccc1)C(=O)N[C@H](C(=O)N[C@@H](C)C(=O)N[C@@H](Cc1c[nH]c2ccccc12)C(=O)N[C@@H](CC(C)C)C(=O)N[C@H](C(=O)N[C@@H](CCCNC(=N)N)C(=O)NCC(=O)N[C@@H](CCCNC(=N)N)C(=O)NCC(=O)O)C(C)C)[C@@H](C)CC)C(C)C)[C@@H](C)O)[C@@H](C)O` [NO: 10] it was 0.525 ± 0.052 nM; in that of `CCSC[C@@H](NC(=O)[C@@H](N)Cc1c[nH]cn1)C(=O)N[C@@H](CCC(=O)O)C(=O)NCC(=O)N[C@H](C(=O)N[C@@H](Cc1ccccc1)C(=O)N[C@H](C(=O)N[C@@H](CO)C(=O)N[C@@H](CC(=O)O)C(=O)N[C@H](C(=O)N[C@@H](CO)C(=O)N[C@@H](CO)C(=O)N[C@@H](Cc1ccc(O)cc1)C(=O)N[C@@H](CC(C)C)C(=O)N[C@@H](CCC(=O)O)C(=O)NCC(=O)N[C@@H](CCC(N)=O)C(=O)N[C@@H](C)C(=O)N[C@@H](C)C(=O)N[C@@H](CCCCNC(=O)COCCOCCNC(=O)COCCOCCNC(=O)CC[C@H](NC(=O)CCCCCCCCCCCCCCCCC(=O)O)C(=O)O)C(=O)N[C@@H](CCC(=O)O)C(=O)N[C@@H](Cc1ccccc1)C(=O)N[C@H](C(=O)N[C@@H](C)C(=O)N[C@@H](Cc1c[nH]c2ccccc12)C(=O)N[C@@H](CC(C)C)C(=O)N[C@H](C(=O)N[C@@H](CCCNC(=N)N)C(=O)NCC(=O)N[C@@H](CCCNC(=N)N)C(=O)NCC(=O)O)C(C)C)[C@@H](C)CC)C(C)C)[C@@H](C)O)[C@@H](C)O` [NO: 12], 8.92 ± 0.31 nM.
On the same count and under the same terms, in the case of `CCCC[C@@H](NC(=O)[C@@H](N)Cc1c[nH]cn1)C(=O)N[C@@H](CCC(=O)O)C(=O)NCC(=O)N[C@H](C(=O)N[C@@H](Cc1ccccc1)C(=O)N[C@H](C(=O)N[C@@H](CO)C(=O)N[C@@H](CC(=O)O)C(=O)N[C@H](C(=O)N[C@@H](CO)C(=O)N[C@@H](CO)C(=O)N[C@@H](Cc1ccc(O)cc1)C(=O)N[C@@H](CC(C)C)C(=O)N[C@@H](CCC(=O)O)C(=O)NCC(=O)N[C@@H](CCC(N)=O)C(=O)N[C@@H](C)C(=O)N[C@@H](C)C(=O)N[C@@H](CCCCNC(=O)COCCOCCNC(=O)COCCOCCNC(=O)CC[C@H](NC(=O)CCCCCCCCCCCCCCCCC(=O)O)C(=O)O)C(=O)N[C@@H](CCC(=O)O)C(=O)N[C@@H](Cc1ccccc1)C(=O)N[C@H](C(=O)N[C@@H](C)C(=O)N[C@@H](Cc1c[nH]c2ccccc12)C(=O)N[C@@H](CC(C)C)C(=O)N[C@H](C(=O)N[C@@H](CCCNC(=N)N)C(=O)NCC(=O)N[C@@H](CCCNC(=N)N)C(=O)NCC(=O)O)C(C)C)[C@@H](C)CC)C(C)C)[C@@H](C)O)[C@@H](C)O` [NO: 14] it was 5.4 ± 0.365 nM.
Molecule `CCC[C@@H](NC(=O)[C@@H](N)Cc1c[nH]cn1)C(=O)N[C@@H](CCC(=O)O)C(=O)NCC(=O)N[C@H](C(=O)N[C@@H](Cc1ccccc1)C(=O)N[C@H](C(=O)N[C@@H](CO)C(=O)N[C@@H](CC(=O)O)C(=O)N[C@H](C(=O)N[C@@H](CO)C(=O)N[C@@H](CO)C(=O)N[C@@H](Cc1ccc(O)cc1)C(=O)N[C@@H](CC(C)C)C(=O)N[C@@H](CCC(=O)O)C(=O)NCC(=O)N[C@@H](CCC(N)=O)C(=O)N[C@@H](C)C(=O)N[C@@H](C)C(=O)N[C@@H](CCCCNC(=O)COCCOCCNC(=O)COCCOCCNC(=O)CC[C@H](NC(=O)CCCCCCCCCCCCCCCCC(=O)O)C(=O)O)C(=O)N[C@@H](CCC(=O)O)C(=O)N[C@@H](Cc1ccccc1)C(=O)N[C@H](C(=O)N[C@@H](C)C(=O)N[C@@H](Cc1c[nH]c2ccccc12)C(=O)N[C@@H](CC(C)C)C(=O)N[C@H](C(=O)N[C@@H](CCCNC(=N)N)C(=O)NCC(=O)N[C@@H](CCCNC(=N)N)C(=O)NCC(=O)O)C(C)C)[C@@H](C)CC)C(C)C)[C@@H](C)O)[C@@H](C)O` [NO: 16] returned an EC50 at human GLP-1R of 2.51 ± 0.307 nM.
